Assay results taken from patent publication US20090264384A1, “INDOLE, BENZIMIDAZOLE, AND BENZOLACTAM BORONIC ACID COMPOUNDS, ANALOGS THEREOF AND METHODS OF USE THEREOF” (Nuada, Inc., priority 2004, published 2009).

The chains behind the UniProt entries cited, without tags or fusion partners.
UniProt P10938, whole entry: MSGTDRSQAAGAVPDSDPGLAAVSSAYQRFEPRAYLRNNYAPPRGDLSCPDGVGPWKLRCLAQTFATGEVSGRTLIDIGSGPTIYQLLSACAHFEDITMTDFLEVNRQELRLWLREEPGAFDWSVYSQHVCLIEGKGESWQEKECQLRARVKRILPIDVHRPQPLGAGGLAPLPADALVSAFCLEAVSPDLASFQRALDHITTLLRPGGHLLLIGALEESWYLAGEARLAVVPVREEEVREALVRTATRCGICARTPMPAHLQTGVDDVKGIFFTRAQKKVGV

Biological target: Phenylethanolamine-N-methyl transferase (Bos taurus, UniProt P10938)
Assay: Phenylethanolamine-N-methyl transferase enzyme assay

CC(N)c1cccc(Cl)c1Cl (centres unmarked)
nH (Hill coefficient): 1.4
IC50 (reference compound): 39 µM
